Source: article PMC6017663, “Investigation of an ^18F-labelled Imidazopyridotriazine for Molecular Imaging of Cyclic Nucleotide Phosphodiesterase 2A” (Molecules : A Journal of Synthetic Chemistry and Natural …, 2018)

Sequences of proteins named here, by UniProt entry; tags and fusion partners are left off. Residues count along the entry.
UniProt O00408, 2-941: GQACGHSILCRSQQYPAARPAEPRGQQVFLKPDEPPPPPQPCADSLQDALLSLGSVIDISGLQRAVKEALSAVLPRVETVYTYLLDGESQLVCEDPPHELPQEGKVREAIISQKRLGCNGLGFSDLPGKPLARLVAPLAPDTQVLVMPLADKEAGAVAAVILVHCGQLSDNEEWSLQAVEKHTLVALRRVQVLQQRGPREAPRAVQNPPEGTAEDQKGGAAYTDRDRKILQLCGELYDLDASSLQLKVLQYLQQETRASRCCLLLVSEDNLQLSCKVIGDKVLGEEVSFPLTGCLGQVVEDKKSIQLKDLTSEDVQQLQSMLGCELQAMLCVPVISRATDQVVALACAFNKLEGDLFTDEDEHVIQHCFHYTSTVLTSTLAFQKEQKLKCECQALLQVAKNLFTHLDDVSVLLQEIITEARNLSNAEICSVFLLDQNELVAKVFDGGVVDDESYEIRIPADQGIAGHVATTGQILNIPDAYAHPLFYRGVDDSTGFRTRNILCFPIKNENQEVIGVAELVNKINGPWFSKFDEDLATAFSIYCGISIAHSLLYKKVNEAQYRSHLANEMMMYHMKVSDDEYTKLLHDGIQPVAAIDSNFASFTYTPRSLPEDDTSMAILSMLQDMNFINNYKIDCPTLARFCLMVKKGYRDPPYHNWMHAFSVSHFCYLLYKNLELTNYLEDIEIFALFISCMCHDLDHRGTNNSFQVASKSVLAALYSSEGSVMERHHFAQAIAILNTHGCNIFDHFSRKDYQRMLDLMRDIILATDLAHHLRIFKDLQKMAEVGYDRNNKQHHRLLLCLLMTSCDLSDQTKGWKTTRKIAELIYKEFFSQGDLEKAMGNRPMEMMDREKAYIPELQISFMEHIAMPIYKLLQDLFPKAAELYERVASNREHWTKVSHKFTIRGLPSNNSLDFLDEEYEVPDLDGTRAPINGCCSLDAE

Target: cyclic nucleotide phosphodiesterase 2A (PDE2A) (Homo sapiens, UniProt O00408)
Assay: enzyme inhibition assay with human recombinant PDE2A (BioCrea)
Type: biochemical
Conditions: read-out: IC50 hPDE2A

SMILES: CCCCOc1ccc(F)c(-c2nc(C)c3nnc4ccc(OCCF)nc4n23)c1 [TA5, 9-(5-Butoxy-2-fluorophenyl)-2-(2-fluoroethoxy)-7-methylimidazo[5,1-c]pyrido[2,3-e]-[1,2,4]triazine]
- IC50: 3 nM
